According to patent US6517846B2, “Cosmetic composition” (Kyowa Hakko Kogyo Co., Ltd., priority 2000, dated 2003):

Tested on: human normal keratinocytes
Test: Evaluation of cytotoxicity suppression for human normal keratinocytes (summary statements, method not specified)
Settings: MTT and NR methods

| Substance | cytotoxicity, comparison in words (from Table 1) |
| --- | --- |
| triethanolamine N-cocoyl glutamate | less cytotoxic than lauroyl β-alanine |
| Triethanolamine N-Cocoyl-L-glutaminate | less toxic than N-cocoyl-L-glutamate |
